uPA surface inh – cell surface uPA generation inhibition. cell surface uPA generation assay, qHTS. Potency, µM (top dose mostly 38.3 µM), inactives show at the highest dose activity change, negative = inhibition, actives largely listed as inhibitors. actives 0.31% (n = 330,000); active = well fitted inhibition curve with a large enough effect; inconclusive = small, poorly fitted or top-dose-only effect; inactive = no such curve, though single readings can be large or run the other way; tested in mouse RAW 264.7 cells; note: potency is the fitted concentration of half-maximal effect; % is set by controls: 0 for no effect and ±100 for the full control effect; nearly all actives have a fitted effect of over 55% in size
TDP1 inh – blocks human tyrosyl-DNA phosphodiesterase 1 | Q9NUW8 | recombinant TDP1, AlphaScreen DNA substrate cleavage | Potency, µM (highest dose often 130 µM), for the others: top-dose activity change, negative = inhibition, usual class: inhibitors | actives 0.28% (n = 350,000); note: potency is the fitted concentration of half-maximal effect; % is set by controls: 0 for no effect and ±100 for the full control effect; nearly all actives have a fitted effect of over 40% in size
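AlphaScreen read-out: signal falls as enzyme removes the 3' tyrosine-FITC from a 5'-biotinylated DNA oligo (15 nM, 5 min, RT). Enzyme was E. coli-made recombinant Tdp1 at 1 nM, exposed to compound for 15 min beforehand; beads 10 ug/ml, 10 min.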
DT40 TDP1 CPT – growth inhibition of DT40 Tdp1-/-;hTDP1 cells with camptothecin (screen for TDP1 inhibitors); AID 686979; chicken DT40 Tdp1-/-;hTDP1 cells + 20 nM CPT, ATP luminescence, 48 h; actives 12% (n = 420,000); Potency, µM (top dose mostly 46.2 µM), inactives show at the highest dose activity change, negative = growth inhibition, usual class: inhibitors; note: potency is the fitted concentration of half-maximal effect; % is set by controls: 0 for no effect and ±100 for the full control effect; nearly all actives have a fitted effect of over 55% in size
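Cell growth measured by CellTiter-Glo luminescence after a minimum 48 h, 37 C compound exposure with 20 nM CPT in Tdp1-knockout DT40 cells stably expressing hTDP1, seeded 400/well; qHTS titration format.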
TDP1 cell noCPT – qHTS for Inhibitors of human tyrosyl-DNA phosphodiesterase 1 (TDP1): qHTS in cells in absence of CPT. DT40 Tdp1-/- hTDP1 cells, no CPT, ATP luminescence, 48 h. Potency, µM (titrated, usually from 46.2 µM), for inactives: at the top dose activity change, negative = growth inhibition, usual class: inhibitors. actives 15% (n = 420,000); note: potency is the fitted concentration of half-maximal effect; % is set by controls: 0 for no effect and ±100 for the full control effect; nearly all actives have a fitted effect of over 55% in size
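Readout: luminescence from CellTiter-Glo after 30 min in the dark at RT. Cells: DT40 Tdp1-/- with stable hTDP1, 400/well. Exposure: compounds alone, ≥48 hr, 37 °C.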
miR-21 FLuc – raises the signal of a miR-21 reporter | Potency, µM (doses to about 38.3 µM), for inactives: top-dose reporter change, positive = more light | HeLa miR-21 FLuc reporter, luciferase, 48 h | AID 2288 | 340,000 tested, under 10 active; active = well fitted rising curve with a large enough effect; inconclusive = small, poorly fitted or top-dose-only effect; inactive = no such curve, though single readings can be large or run the other way;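 also: % of control where 0% means no effect; miR-21 action dims this reporter so a rising signal means less miR-21 action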
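HeLa cells stably expressing CMV-driven firefly luciferase with a downstream miR-21 binding sequence, endogenously expressing miR-21, were treated with titrations (up to about 40uM final) for 48 hours at 37 degree Celsius. Luciferase luminescence was read after lysis.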
* hit, by the source's call; ? = inconclusive; nt = no result; [ ] = another dose, or the depositor's remark. Most compounds without a hit are left out; they make up all but 16% or so of the library. Unless noted, calls come from the whole dose curve; as a rule, active = well fitted curve in the direction sought with a large enough effect; inconclusive = small, poorly fitted or top-dose-only effect, or another doubt; inactive = no such curve, though single readings can be large; an effect the other way counts as inactive or inconclusive.

#	SMILES	uPA surface inh	TDP1 inh	DT40 TDP1 CPT
1	Cc1cc(Br)c(OCc2ccc(C(=O)N/N=C3\CC4CC=CC34)cc2)c(Br)c1 (stereo not drawn)	3%	3%	-29%
2	Cc1cccc(C)c1NC(=O)CSc1nnc(CCCCCNC(=O)OC(C)(C)C)o1	-1%	3%	15µM*
3	CC(C)(C)OC(=O)NCCCCCc1nnc(SCc2ccc(F)cc2)o1	1%	0%	?
4	Cc1ccc(CSc2nnc(CCNC(=O)OC(C)(C)C)o2)cc1	11%	nt	?
5	COc1ccc(NS(=O)(=O)c2ccc(C)c(C(=O)NCc3cccnc3)c2)cc1	-3%	0%	0%
6	COCCNC(=O)CSc1nc(-c2ccccc2)c(-c2ccccc2)o1	-4%	5%	12µM*
7	Cc1nc(Cc2nnc(SCC(=O)N3c4ccccc4NC(=O)C3(C)C)o2)cs1	nt	nt	-29%
8	CC[C@@]1(C(=O)OC)N[C@H](CN(C)C(=O)c2ccc(F)cc2)[C@@H]2C(=O)N(Cc3ccccc3)C(=O)[C@@H]21	12%	-1%	-21%

#	TDP1 cell noCPT	miR-21 FLuc
1	15µM*	-2%
2	13µM*	-1%
3	23µM*	12%
4	-6%	1%
5	-2%	1%
6	?	7%
7	16µM*	nt
8	-8%	nt

The list goes on.
#	SMILES	uPA surface inh	TDP1 inh	DT40 TDP1 CPT
9	CN(C)C(CNc1ccc(C(N)=O)cc1[N+](=O)[O-])c1ccccc1 (stereo not drawn)	2%	4%[0.0935 µM]	-7%
10	NCCNc1ccc(C(=O)N2c3ccccc3Sc3ccccc32)cc1[N+](=O)[O-]	-8%	nt	18µM*
11	Nc1ccc(C(=O)OCC(=O)N2CCc3ccccc3C2)cc1[N+](=O)[O-]	-1%	2%	-27%
12	Nc1ccc(C(=O)OCC(=O)N2c3ccccc3Sc3ccccc32)cc1[N+](=O)[O-]	6%	3%	?
13	Cc1ccc(NC(=O)CSc2nnc(N)s2)c(C)c1	nt	nt	-3%
14	CC(=O)Nc1ccc(C(=O)OCCC(C)C)cc1	3%	10%	-27%
15	COc1cc(C2C3=C(COC3=O)Oc3cc4c(cc32)OCO4)ccc1O (stereo not drawn)	-11%	nt	0.82µM*
16	Cc1ccc(C2CC(=O)Oc3cc4c(cc32)OCO4)cc1 (stereo not drawn)	nt	-14%[234 µM]	nt

#	TDP1 cell noCPT	miR-21 FLuc
9	-22%	-10%
10	18µM*	25%
11	?	-18%
12	7.3µM*	10%
13	1%	-2%
14	-29%	-46%
15	0.58µM*	nt
16	nt	nt

Continuation:
#	SMILES	uPA surface inh	TDP1 inh	DT40 TDP1 CPT
17	COc1cc(C2C3=C(COC3=O)OC(C)(C)Oc3cc4c(cc32)OCO4)cc(OC)c1OC (stereo not drawn)	-6%	nt	1µM*
18	COc1cc2c(c(OC)c1OC)-c1c(cc3c(c1OC)OCO3)C1OC2[C@@H](C)[C@H]1C (stereo partly drawn)	15%	0%	?
19	COc1ccc2sc(NC(=O)NC(=O)c3c(Cl)cccc3Cl)nc2c1	2%	5%	-22%
20	CC(=O)OC(COC1C[C@@H]2CC[C@@]1(C)C2(C)C)C[N+]1(C)CCCCC1 (stereo partly drawn)	2%	3%	?
21	C=CCNc1nnnc2c1sc1nc(N3CCOCC3)c3c(c12)CCCC3	-1%	-3%	18%
22	Cc1ccccc1-n1cnc2c(sc3nc(N4CCOCC4)c4c(c32)CCCC4)c1=O	0%	-5%	18µM*
23	O=c1c2sc3nc(N4CCOCC4)c4c(c3c2nnn1Cc1ccccc1)CCCC4	-4%	-3%	8.2µM*
24	COc1ccc(-n2cnc3c(sc4nc(N5CCOCC5)c5c(c43)CCCC5)c2=O)cc1	-2%	-1%	18µM*

#	TDP1 cell noCPT	miR-21 FLuc
17	0.73µM*	nt
18	?	15%
19	?	-17%
20	18µM*	2%
21	13µM*	-2%
22	15µM*	-10%
23	?	-11%
24	23µM*	3%

Profiles as entered above. Order of screens: uPA surface inh, TDP1 inh, DT40 TDP1 CPT, TDP1 cell noCPT, miR-21 FLuc
Cc1ccc(C2CC(=O)Oc3cc4c(cc32)OCO4)cc1 (stereo not drawn) across the screens: nt, -14%[234 µM], nt, nt, nt
COc1ccc(-n2cnc3c(sc4nc(N5CCOCC5)c5c(c43)CCCC5)c2=O)cc1 across the screens: -2%, -1%, 18µM*, 23µM*, 3%
Cc1nc(Cc2nnc(SCC(=O)N3c4ccccc4NC(=O)C3(C)C)o2)cs1 across the screens: nt, nt, -29%, 16µM*, nt
Nc1ccc(C(=O)OCC(=O)N2c3ccccc3Sc3ccccc32)cc1[N+](=O)[O-] across the screens: 6%, 3%, ?, 7.3µM*, 10%
Cc1ccc(CSc2nnc(CCNC(=O)OC(C)(C)C)o2)cc1 across the screens: 11%, nt, ?, -6%, 1%

Additional structures:
#	SMILES	uPA surface inh	TDP1 inh	DT40 TDP1 CPT
25	Cc1cc(C)n2c(NCc3ccccc3)c(-c3cc4ccccc4o3)nc2n1	nt	nt	16µM*
26	Cc1cc(C)n2c(Nc3ccccc3)c(-c3ccc(C)o3)nc2n1	nt	4%	?
27	CN(C)Cc1nc2ccccc2c(=O)n1Cc1nc(C(C)(C)C)cs1	12%	5%	?
28	CC(=O)Cn1c(CN2CCCC2)nc2ccccc2c1=O	2%	-2%	8%
29	CN1CCN(Cc2nc3ccccc3c(=O)n2Cc2nc(-c3ccccc3F)cs2)CC1	1%	5%	16µM*
30	CN1CCN(Cc2nc3ccccc3c(=O)n2Cc2nc(-c3ccc4ccccc4c3)cs2)CC1	1%	5%	4.6µM*
31	O=C1c2oc3ccccc3c(=O)c2C(c2ccc(O)cc2)N1Cc1ccc2c(c1)OCO2 (stereo not drawn)	nt	9%	0%
32	CCN(C(=O)Cn1cc(C(C)=O)c2ccccc21)c1ccccc1	-9%	6%	?

#	TDP1 cell noCPT	miR-21 FLuc
25	15µM*	nt
26	?	nt
27	?	15%
28	-19%	-2%
29	10µM*	-3%
30	2.3µM*	?
31	-21%	-7%
32	?	-4%

Further records:
#	SMILES	uPA surface inh	TDP1 inh	DT40 TDP1 CPT
33	O=C(N/N=C/C=C/c1ccccc1)c1ccncc1	1%	3%	?
34	Cc1cccc(NC(=O)c2ccccc2NC(=O)c2ccccc2)n1	-5%	nt	?
35	O=C(Nc1ccccc1O)c1ccc(NC(=O)C2CC2)cc1	-6%	1%	12µM*
36	O=C(Nc1cc(NC(=O)c2ccccc2Cl)ccc1Cl)c1ccccc1	nt	2%[12.3 µM]	?
37	COc1ccccc1NC(=O)c1ccc(NC(=O)C2CC2)cc1	2%	nt	9%
38	Nc1ccccc1NC(=O)c1ccccc1	-13%	5%	21µM*
39	Cc1ccccc1C(=O)Nc1ccc(C(=O)N/N=C/c2ccncc2)cc1	1%	6%	2%
40	Cc1ccc(C(=O)Sc2cccccc2=O)cc1	14%	nt	0.73µM*

#	TDP1 cell noCPT	miR-21 FLuc
33	21µM*	0%
34	18µM*	19%
35	12µM*	-96%
36	21µM*	-31%
37	1%	nt
38	18µM*	-35%
39	-30%	1%
40	0.52µM*	?

Additional structures:
#	SMILES	uPA surface inh	TDP1 inh	DT40 TDP1 CPT
41	O=C(Nc1ccccc1C(=O)O)c1ccc(NC(=O)C2CC2)cc1	7.9µM*	2%	?
42	Cc1ccc(C(=O)CC(=O)c2ccccc2)cc1	-8%	nt	?
43	O=C(Nc1ccccc1C(=O)N/N=C/c1ccncc1)c1ccccc1	-17%	6%	?
44	Nc1ccc(C(=O)Nc2ccccc2C(=O)O)cc1	-3%	3%	1%
45	CC(O)CNc1nc(N)[nH]c(=O)c1N=Nc1ccccc1 (stereo not drawn)	1%	nt	19%
46	COC(=O)c1nc(-c2ccccc2)oc1N(C)C	nt	-8%	-1%
47	NC1=NC(=O)/C(=C/C=C/c2cccs2)S1	-8%	nt	-21%
48	O=C(Nc1ccccc1C(=O)NC(Cc1ccccc1)C(=O)NC1CCCCC1)c1ccccc1 (stereo not drawn)	-6%	8%	?
49	O=C(Nc1ccccc1C(=O)Nc1ccccc1C(=O)O)c1ccccc1	-19%	nt	?

#	TDP1 cell noCPT	miR-21 FLuc
41	-10%	-1%
42	?	-50%
43	21µM*	-22%
44	-20%	5%
45	3%	nt
46	4%	-15%
47	?	nt
48	26µM*	-1%
49	12µM*	10%

Compound activity (PubChem BioAssay)
